## scFv variants of Ab-95 (light chain) against a SARS-CoV-2 spike peptide

From the AlphaSeq antibody data of Engelhart et al. 2022 (doi:10.1038/s41597-022-01779-4), copy in the FLAb collection.

All variants were tested on one target, the spike HR2 peptide PDVDLGDISGINAS (SARS-CoV-2).

Parent scFv Ab-95: VH joined to VL by a (GGGGS)3 linker. Changes lie in the light chain CDRs alone.
VH: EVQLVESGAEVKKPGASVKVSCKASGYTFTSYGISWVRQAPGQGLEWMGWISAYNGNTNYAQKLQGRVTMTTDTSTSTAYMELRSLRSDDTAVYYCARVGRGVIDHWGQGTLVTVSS
VL: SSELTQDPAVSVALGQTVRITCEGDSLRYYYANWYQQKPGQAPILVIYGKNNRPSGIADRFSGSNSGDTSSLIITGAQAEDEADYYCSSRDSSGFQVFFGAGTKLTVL

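The parent was found by panning a naive human phage display library on the peptide. The library (AAYL52) carries one to three amino acid substitutions per variant, with no insertions or deletions. In AlphaSeq, yeast of one mating type display the scFv and yeast of the other type display the target. Binding brings cells together so that they mate, and sequencing counts the barcode pairs among the diploids. A regression on co-assayed BCL2-family reference pairs converts the normalised counts of each replicate to an apparent Kd. Each pool was mated in three replicate cultures.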

Substitutions are numbered in sequence along the VL above, starting at 1 (not Kabat).
Every variant below is changed at N33 of the VL (sequential numbering).
Kd is apparent (estimated from mating counts) and averaged on the log scale over replicates with a signal. Smaller is tighter.
"nd" marks a missing value. The strain was present, yet no cells mated with the target were sequenced in any replicate, which points to weak or no binding.
Order: sorted from the lowest average up, undetected variants last.
Three control strains display no target. For library AAYL52, 28% of the pairings with them gave a signal, with a median of 8.2 µM and one signal in twenty below 800 nM, so weak values seen in few replicates may be background. For each scFv, signals with the empty controls are counted beside the result.
For reference, the parent read 200 nM as the reference entry and 180 nM as a member of this library.

The variant R28F N33Y S88E showed 52 nM (3 of 3 replicates; controls 1 of 9). For D25T N33T F98R, the assay gave 100 nM (3 of 3 replicates; controls 3 of 9). With E23K N33Q N52T the result was 570 nM (2 of 3 replicates; controls 3 of 9). With Y30T N33Q N51M the result was 1.0 µM (3 of 3 replicates; controls 2 of 9). The variant G24W N33G S92W showed 1.0 µM (2 of 3 replicates; controls 3 of 9). The variant N33F K50I N52D gave 1.0 µM (3 of 3 replicates; controls 3 of 9). The variant G24D L27E N33S gave 1.1 µM (3 of 3 replicates; controls 4 of 9). The variant N33D K50W S93M gave 1.3 µM (1 of 3 replicates; controls 3 of 9).

With S26P N33G F95R the result was 1.6 µM (3 of 3 replicates; controls 3 of 9). With Y30G N33Y F98P the result was 1.8 µM (2 of 3 replicates; controls 1 of 9). For N33V, the assay gave 2.6 µM (1 of 3 replicates; controls 2 of 9). The variant L27M Y29N N33V gave 3.6 µM (3 of 3 replicates; controls 5 of 9). The variant A32K N33K R53G showed 3.8 µM (3 of 3 replicates; controls 3 of 9). The variant N33I S93G Q96H gave 4.7 µM (1 of 3 replicates; controls 1 of 9). The variant N33G N52V F98D gave 5.4 µM (3 of 3 replicates; controls 1 of 9). The variant N33I K50L Q96L gave 6.7 µM (2 of 3 replicates; controls 1 of 9).

For N33P N51G F95P, the assay gave 6.7 µM (2 of 3 replicates; controls 4 of 9). For N33Y S89R D91G, the assay gave 7.0 µM (1 of 3 replicates; controls 1 of 9). The variant N33E R53Q D91V showed 9.2 µM (1 of 3 replicates; controls 1 of 9). The variant S26Y N33Q S88F showed 10 µM (2 of 3 replicates; controls 4 of 9). With D25A N33T D91Y the result was 13 µM (1 of 3 replicates; controls 2 of 9). With N33Y D91W V97Y the result was 15 µM (1 of 3 replicates; controls 2 of 9). With N33H G49P R90F the result was 16 µM (2 of 3 replicates; controls 2 of 9). For Y31K N33G R53F, the assay gave 17 µM (2 of 3 replicates; controls 4 of 9).

For N33A R53M G94V, the assay gave 22 µM (1 of 3 replicates; controls 2 of 9). With R28P N33T R90T the result was 23 µM (1 of 3 replicates; controls 3 of 9). The variant A32S N33P gave 28 µM (1 of 3 replicates; controls 0 of 9). For N33D G94I V97M, the assay gave 39 µM (3 of 3 replicates; controls 5 of 9). The variant Y29N N33T N52H showed 47 µM (1 of 3 replicates; controls 5 of 9). The variant N33H R53Q S88E showed 75 µM (1 of 3 replicates; controls 3 of 9). The variant Y31Q N33K R90D showed 190 µM (1 of 3 replicates; controls 0 of 9). The variant Y29L N33Q K50Q gave 560 µM (1 of 3 replicates; controls 1 of 9).

The variant N33Y S88G gave 690 µM (1 of 3 replicates; controls 3 of 9). With N33Y D91V V97K the result was 740 µM (1 of 3 replicates; controls 7 of 9). The variant N33G G94C V97R gave nd (0 of 3 replicates; controls 3 of 9). The variant L27W N33P S89Q gave nd (0 of 3 replicates; controls 0 of 9). For N33F S88A F98T, the assay gave nd (0 of 3 replicates; controls 1 of 9). The variant Y29P N33G K50N showed nd (0 of 3 replicates; controls 4 of 9). The variant E23V N33Q gave nd (0 of 3 replicates; controls 0 of 9). For Y30D N33P G94L, the assay gave nd (0 of 3 replicates; controls 4 of 9).

The variant A32R N33M S88E showed nd (0 of 3 replicates; controls 0 of 9).

Top 3 of the variants detected in all replicates, tightest first:

{"changes": "R28F N33Y S88E", "apparent Kd": "52 nM", "detected": "3/3", "signal with controls": "1/9"}
{"changes": "D25T N33T F98R", "apparent Kd": "100 nM", "detected": "3/3", "signal with controls": "3/9"}
{"changes": "Y30T N33Q N51M", "apparent Kd": "1.0 µM", "detected": "3/3", "signal with controls": "2/9"}